Results from BindingDB's records for US10807988.

By UniProt entry, the sequences of proteins in these tests, tags left out. Where a name states a change or a piece, a line headed by the entry shows the natural chain unless it says otherwise.
UniProt P41146: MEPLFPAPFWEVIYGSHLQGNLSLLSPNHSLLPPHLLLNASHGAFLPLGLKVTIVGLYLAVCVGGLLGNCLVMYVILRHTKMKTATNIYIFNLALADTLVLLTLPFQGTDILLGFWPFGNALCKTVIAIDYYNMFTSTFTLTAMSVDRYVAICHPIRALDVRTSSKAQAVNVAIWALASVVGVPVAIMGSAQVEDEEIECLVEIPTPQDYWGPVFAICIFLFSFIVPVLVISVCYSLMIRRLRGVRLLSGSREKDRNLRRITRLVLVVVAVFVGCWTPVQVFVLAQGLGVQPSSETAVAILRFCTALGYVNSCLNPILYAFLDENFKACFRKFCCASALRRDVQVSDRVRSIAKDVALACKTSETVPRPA
UniProt P35372, whole entry, looked up: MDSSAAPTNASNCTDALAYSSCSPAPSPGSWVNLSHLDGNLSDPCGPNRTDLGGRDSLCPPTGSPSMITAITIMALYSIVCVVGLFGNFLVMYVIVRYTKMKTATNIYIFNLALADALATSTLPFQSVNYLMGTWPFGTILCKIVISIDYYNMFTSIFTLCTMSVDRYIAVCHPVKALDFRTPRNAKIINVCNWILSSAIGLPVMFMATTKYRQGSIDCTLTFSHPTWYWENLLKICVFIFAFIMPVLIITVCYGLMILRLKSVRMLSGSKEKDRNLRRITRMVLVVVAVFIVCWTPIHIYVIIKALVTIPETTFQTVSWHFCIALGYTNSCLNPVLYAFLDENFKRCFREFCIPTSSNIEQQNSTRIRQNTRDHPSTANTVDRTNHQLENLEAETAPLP

target: Nociceptin receptor (Homo sapiens, UniProt P41146); test: Human Nociceptin/Orphanin FQ Peptide (hNOP) Receptor Binding Assay

| Compound | Ki [nM] |
| --- | --- |
| CN(C)[C@]1(c2ccccc2)CC[C@]2(CC1)CN(c1cnc(N3CCNC(=O)C3)nc1)C(=O)N2 | 26 |
| CN(C)[C@]1(c2ccccc2)CC[C@]2(CC1)CN(c1cnc(N)nc1)C(=O)N2 | 35 |
| Cc1cc(C(F)(F)F)ncc1N1C[C@]2(CC[C@](c3cccc(O)c3)(N(C)C)CC2)NC1=O | 29 |
| CN(C)[C@]1(c2ccccc2)CC[C@]2(CC1)CN(c1cnc(-c3cccc(C#N)c3)nc1)C(=O)N2 | 13 |
| Cn1nc(C(F)(F)F)cc1N1C[C@]2(CC[C@](c3cccc(F)c3)(N(C)C)CC2)NC1=O | 4 |
| CN(C)[C@]1(c2ccccc2)CC[C@]2(CC1)CN(c1cnc(-c3ccc(C(N)=O)cc3)nc1)C(=O)N2 | 2 |
| CN(C)[C@]1(c2ccccc2)CC[C@]2(CC1)CN(c1cnc(-c3ccccc3C#N)nc1)C(=O)N2 | 4 |
| CN(C)[C@]1(c2ccccc2)CC[C@]2(CC1)CN(c1cnc(C(=O)N3CCNCC3)nc1)C(=O)N2 | 10 |
| CN(C)[C@]1(c2ccccc2)CC[C@]2(CC1)CN(c1cnc(N3CCOCC3)nc1)C(=O)N2CC1(O)CCC1 | 17 |
| CN(C)[C@]1(c2ccccc2)CC[C@]2(CC1)CN(c1cnc(N3CCN(S(C)(=O)=O)CC3)nc1)C(=O)N2 | 4 |
| CN(C)[C@]1(c2ccccc2)CC[C@]2(CC1)CN(c1cnc(N3CCNCC3)nc1)C(=O)N2CC1(O)CCC1 | 1 |
| CN(C)[C@]1(c2ccccc2)CC[C@]2(CC1)CN(c1cnc(NCCO)nc1)C(=O)N2 | 33 |
| CN(C)[C@]1(c2ccccc2)CC[C@]2(CC1)CN(c1ncc(C(N)=O)cn1)C(=O)N2CC1CCC1 | 4.2 |
| CN(C)[C@]1(c2ccccc2)CC[C@]2(CC1)CN(c1cnc(NC(=O)C3CC3)nc1)C(=O)N2 | 28 |
| CN(C)[C@]1(c2ccccc2)CC[C@]2(CC1)CN(c1ncc(C#N)cn1)C(=O)N2CC1CCC1 | 0.8 |
| CN(C)C(=O)c1ccc(N2C[C@]3(CC[C@](c4ccccc4)(N(C)C)CC3)N(CC3CCC3)C2=O)cc1 | 0.6 |
| CN(C)[C@]1(c2ccccc2)CC[C@]2(CC1)CN(c1cccc3c1CC(=O)N3)C(=O)N2 | 44 |
| CN(C)[C@]1(c2ccccc2)CC[C@]2(CC1)CN(c1ccc(S(C)(=O)=O)nc1)C(=O)N2CC1CC1 | 2 |
| CN(C)[C@]1(c2ccccc2)CC[C@]2(CC1)CN(c1ccc(S(C)(=O)=O)cc1C#N)C(=O)N2CC1CCC1 | 0.6 |
| Cc1cc(C(F)(F)F)ncc1N1C[C@]2(CC[C@](c3ccccc3)(N(C)C)CC2)N(CC2CCC2)C1=O | 7 |
| CN(C)[C@]1(c2ccccc2)CC[C@]2(CC1)CN(c1cccc3nc(O)oc13)C(=O)N2 | 37 |
| CN[C@]1(c2ccccc2)CC[C@]2(CC1)CN(c1ccccc1C#N)C(=O)N2CC1(O)CCC1 | 36 |
| CCN(C)[C@]1(c2ccccc2)CC[C@]2(CC1)CN(c1cnc(C#N)nc1OC)C(=O)N2CC1CCC1 | 6.2 |
| CN(C)[C@]1(c2ccccc2)CC[C@]2(CC1)CN(c1cnc(-n3ncc4ccccc43)nc1)C(=O)N2 | 10 |
| CN(C)[C@]1(c2ccccc2)CC[C@]2(CC1)CN(c1cnc(-n3cc(C4CC4)nn3)nc1)C(=O)N2 | 10 |
| CN(C)[C@]1(c2ccccc2)CC[C@]2(CC1)CN(c1cnc(C#N)nc1)C(=O)N2CC1(O)CCC1 | 1.4 |

target: Mu-type opioid receptor (Homo sapiens, UniProt P35372); test: Human Mu-Opioid Peptide (hMOP) Receptor Binding Assay

| Compound | Ki [nM] |
| --- | --- |
| CN(C)[C@]1(c2ccccc2)CC[C@]2(CC1)CN(c1ccc(C(N)=O)cc1)C(=O)N2CC1(O)CCC1 | 50.5 |
| Cc1cc(C(N)=O)cnc1N1C[C@]2(CC[C@](c3ccccc3)(N(C)C)CC2)NC1=O | 5100 |
| CN(C)[C@]1(c2ccccc2)CC[C@]2(CC1)CN(c1ccc(F)c(C#N)c1)C(=O)N2CC1CCC1 | 770 |
| COCCN1C(=O)N(c2ccnc(C#N)n2)C[C@]12CC[C@](c1ccccc1)(N(C)C)CC2 | 63 |
| CN(C)[C@]1(c2ccccc2)CC[C@]2(CC1)CN(c1cnc(N3CCC3)c(C(F)(F)F)c1)C(=O)N2 | 1970 |
| CCN(C)[C@]1(c2ccccc2)CC[C@]2(CC1)CN(c1cnc(C(F)(F)F)nc1)C(=O)N2CC1CCC1 | 730 |
| CN(C)[C@]1(c2ccccc2)CC[C@]2(CC1)CN(c1ccc(C(F)(F)F)cc1F)C(=O)N2 | 6700 |
| CN(C)[C@]1(c2ccccc2)CC[C@]2(CC1)CN(c1cnc(C#N)nc1)C(=O)N2CC1CC1 | 290 |
| CN(C)[C@]1(c2ccccc2)CC[C@]2(CC1)CN(c1cnc(N3CCOCC3)cc1C#N)C(=O)N2 | 4780 |
| CN(C)[C@]1(c2ccccc2)CC[C@]2(CC1)CN(c1cnc(O)nc1)C(=O)N2CC1(O)CCC1 | 36 |
| CN(C)[C@]1(c2ccccc2)CC[C@]2(CC1)CN(c1cccc3[nH]ccc13)C(=O)N2 | 2200 |
| Cc1cc(N2CCNC(=O)C2)ncc1N1C[C@]2(CC[C@](c3ccccc3)(N(C)C)CC2)NC1=O | 2060 |
| CN(C)[C@]1(c2ccccc2)CC[C@]2(CC1)CN(c1cnc(NC(=O)c3ccccc3)nc1)C(=O)N2 | 5900 |
| CN(C)[C@]1(c2ccccc2)CC[C@]2(CC1)CN(c1cnc(NC3CCOCC3)nc1)C(=O)N2 | 5490 |
| CN[C@]1(c2ccccc2)CC[C@]2(CC1)CN(c1cnc(C(F)(F)F)nc1)C(=O)N2CC1CCC1 | 76 |
| CN[C@]1(c2ccccc2)CC[C@]2(CC1)CN(c1cnc(N3CCN(C)CC3)nc1)C(=O)N2CC1(O)CCC1 | 3 |
| CN[C@]1(c2ccccc2)CC[C@]2(CC1)CN(c1cnc(C#N)nc1)C(=O)N2CC1(O)CCC1 | 37 |
| CN(C)[C@]1(c2ccccc2)CC[C@]2(CC1)CN(c1cnc(C#N)nc1)C(=O)N2CC1(C#N)CCC1 | 79.5 |
| CN(C)[C@]1(c2ccccc2)CC[C@]2(CC1)CN(c1ccccc1C#N)C(=O)N2CC1CCC1 | 67 |

| Compound | Ki [nM] |
| --- | --- |
| CN(C)[C@]1(c2cccc(F)c2)CC[C@]2(CC1)CN(c1ccccc1CS(C)(=O)=O)C(=O)N2 | 6600 |
| CN(C)[C@]1(c2ccccc2)CC[C@]2(CC1)CN(c1ccccc1C(N)=O)C(=O)N2CC1(O)CCC1 | 26 |
| CN(C)[C@]1(c2ccccc2)CC[C@]2(CC1)CN(c1cnc(-c3ccc(C#N)cc3)nc1)C(=O)N2 | 3750 |
| COCCCN1C(=O)N(c2cnc(C#N)nc2)C[C@]12CC[C@](c1ccccc1)(N(C)C)CC2 | 135 |
| CN(C)[C@]1(c2ccccc2)CC[C@]2(CC1)CN(c1ccccc1F)C(=O)N2 | 1620 |
| CN(C)[C@]1(c2ccccc2)CC[C@]2(CC1)CN(c1cc(S(C)(=O)=O)ccc1C#N)C(=O)N2CC1CCC1 | 99 |
| CCN(CCO)C(=O)c1ccc(N2C[C@]3(CC[C@](c4ccccc4)(N(C)C)CC3)N(CC3CCC3)C2=O)cc1 | 7.3 |
| Cc1cc(C(F)(F)F)ncc1N1C[C@]2(CC[C@](c3ccccc3)(N(C)C)CC2)N(CC(=O)N(C)C)C1=O | 1970 |
| CN(C)[C@]1(c2ccccc2)CC[C@]2(CC1)CN(c1cnc(N3CCNCC3)nc1)C(=O)N2CC1(O)CCC1 | 1 |
| Cc1cc(C(F)(F)F)ncc1N1C[C@]2(CC[C@](c3nc4ccccc4n3C)(N(C)C)CC2)NC1=O | 24000 |
| CN(C)[C@]1(c2ccccc2)CC[C@]2(CC1)CN(c1ncc(C#N)cn1)C(=O)N2CC1CCC1 | 29.5 |
| CN(C)[C@]1(c2ccccc2)CC[C@]2(CC1)CN(c1cnc(S(C)(=O)=O)nc1C#N)C(=O)N2CC1CCC1 | 46 |
| Cc1cnccc1N1C[C@]2(CC[C@](c3ccccc3)(N(C)C)CC2)NC1=O | 4780 |
| CN[C@]1(c2ccccc2)CC[C@]2(CC1)CN(c1ccc(S(C)(=O)=O)cc1)C(=O)N2CC1CC1 | 165 |
| CN(C)[C@]1(c2ccccc2)CC[C@]2(CC1)CN(c1cnc(-c3cccc4c3CC(=O)N4)cc1C#N)C(=O)N2 | 1240 |
| CN(C)[C@]1(c2ccccc2)CC[C@]2(CC1)CN(c1cccc(C(F)(F)F)c1)C(=O)N2 | 2440 |
| CN[C@]1(c2ccccc2)CC[C@]2(CC1)CN(c1ccc(C#N)cc1OC)C(=O)N2CC1CCC1 | 96 |
| CN(C)[C@]1(c2ccccc2)CC[C@]2(CC1)CN(c1cncnc1)C(=O)N2CC1(O)CCC1 | 63 |
| CN(C)[C@]1(c2cccs2)CC[C@]2(CC1)CN(c1ccccc1CS(C)(=O)=O)C(=O)N2 | 1240 |

| Compound | Ki [nM] |
| --- | --- |
| CN(C)S(=O)(=O)c1ccc(N2C[C@]3(CC[C@](c4ccccc4)(N(C)C)CC3)N(CC3CCC3)C2=O)c(C(F)(F)F)c1 | 235 |
| COc1cc(C#N)ccc1N1C[C@]2(CC[C@](c3ccccc3)(N(C)C)CC2)N(CC2CCC2)C1=O | 90.5 |
| CN[C@]1(c2ccccc2)CC[C@]2(CC1)CN(c1cnc(N3CCNCC3)nc1)C(=O)N2CC1(O)CCC1 | 1 |
| Cc1cc(-c2ccccn2)ncc1N1C[C@]2(CC[C@](c3ccccc3)(N(C)C)CC2)NC1=O | 1580 |
| CN1CCN(c2ncc(N3C[C@]4(CC[C@](c5ccccc5)(N(C)C)CC4)N(CC4(O)CCC4)C3=O)cn2)CC1 | 6 |
| CN(C)[C@]1(c2ccccc2)CC[C@]2(CC1)CN(c1cnc(C(N)=O)nc1)C(=O)N2CC1(O)CCC1 | 4.4 |
| CN[C@]1(c2ccccc2)CC[C@]2(CC1)CN(c1ccc(C#N)cc1OC)C(=O)N2CC1(O)CCC1 | 26 |
| CN[C@]1(c2ccccc2)CC[C@]2(CC1)CN(c1ccc(C(F)(F)F)cc1S(C)(=O)=O)C(=O)N2CC1CCC1 | 45.5 |
| CN(C)[C@]1(c2ccccc2)CC[C@]2(CC1)CN(c1ccc(S(C)(=O)=O)nc1)C(=O)N2CC1CC1 | 97 |
| CN(C)[C@]1(c2ccccc2)CC[C@]2(CC1)CN(c1ccc(-c3ccncc3)s1)C(=O)N2 | 1350 |
| CN(C)[C@]1(c2ccccc2)CC[C@]2(CC1)CN(c1cccc(C#N)c1)C(=O)N2CC1CCC1 | 235 |
| COc1nc(C#N)ncc1N1C[C@]2(CC[C@](c3ccccc3)(N(C)C)CC2)N(CC2CCC2)C1=O | 350 |
| CN(C)[C@]1(c2ccccc2)CC[C@]2(CC1)CN(c1ccc(C#N)cc1F)C(=O)N2 | 3500 |
| CN(C)[C@]1(c2ccccc2)CC[C@]2(CC1)CN(c1ccc3c(c1)NCC3)C(=O)N2 | 1680 |
| CN(C)[C@]1(c2ccccc2)CC[C@]2(CC1)CN(c1cnc(NCc3ccccc3)nc1)C(=O)N2 | 2540 |
| Cc1cc(C(F)(F)F)ncc1N1C[C@]2(CC[C@](c3ccccc3)(N(C)C)CC2)N(CC2CCC2)C1=O | 1 |
| CN(C)C(=O)CN1C(=O)N(c2ccnc(C#N)n2)C[C@]12CC[C@](c1ccccc1)(N(C)C)CC2 | 28 |
| COCCN1C(=O)N(c2ncc(C#N)cn2)C[C@]12CC[C@](c1ccccc1)(N(C)C)CC2 | 29.5 |
